An excerpt weighted towards active compounds, which were near 4.2% of everything screened.
NALP1 inh – NALP1 inhibition; S. cerevisiae NALP1/ASC/caspase-1 growth, X-gal OD620, 72 h; inhibition, % at 10 µM; actives 0.61% (n = 280,000); in the data active = inhibition mostly above about 24%, no sharp cut-off; inactive = mostly below about 32%
MC4R barr agon – activates human MC4R beta-arrestin recruitment; P32245; U2OS MC4R beta-arrestin complementation, luminescence; percent of melanotan II response, DMSO zero; activation, % at 8.9 µM; actives 0.98% (n = 360,000); AID 540308;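 active = activation above a per-plate cutoff, the mean activation of sample wells on that plate plus 3 SD, cut at about 8% in these data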
MC4R antag cAMP – human MC4R antagonism in cAMP assay. actives 0.48% (n = 360,000). inhibition, % at 6.5 µM. MC4R-expressing cells, MTII-stimulated cAMP, LANCE TR-FRET. P32245;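 active = inhibition above its plate's cutoff, the mean of tested wells on that plate plus 3 SD, cut at about 29% in these data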;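 note: 0% = Melanotan II alone and 100% = Melanotan II plus saturating MCL0020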
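Assay system: human MC4R-expressing U2OS cells; reagent: Melanotan II stimulation of cells; dosing: 6.5 µM single dose; timing: compound 30 min, challenge 1 h, detection 1 h; signal: TR-FRET cAMP assay; replicates: one well per compound, no replicates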
HDAC3 inh – human HDAC3 inhibition | O15379 | AID 2718 | inhibition, % at 8.3 µM | actives 0.15% (n = 320,000) | recombinant HDAC3, fluorogenic peptide/trypsin coupled, fluorescence; in the data active = inhibition above about 26%, passing the limit was not always enough
UUG fidelity – modulators of yeast start codon fidelity, primary screen, whole organism, S. cerevisiae, single point, plate reader; S. cerevisiae UUG-firefly luciferase reporter, luminescence/redox ratio; activity score, % at 18.7 µM; 0.13% of 350,000 active; AID 602363, 2012;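 active = replicate mean at a twofold rise or more, about +100% in these data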;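 also: firefly luciferase made from a UUG start codon reports start codon fidelity; reporter light over untreated wells divided by growth signal over untreated wells; some hits fall short of that in this replicate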
ALR inh – inhibitors of human ALR sulfhydryl oxidase, primary screen, biochemical, H2O2 detection, HRP-luminol luminescence, single point; purified ALR, DTT oxidation; inhibition, % (no concentration beside the values); 290,000 tested, 3.8% active;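 active = mean and each replicate at 75% or more; inconclusive = only one of the two met; inactive = neither met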;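 also: stock transfer was 7.5 nL into about 7.5 µL; 0% = neutral wells and 100% = wells with inactivated enzyme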
MC4R barr conf – human MC4R beta-arrestin agonism confirmation; activation, % at 8.9 µM; shares compounds with MC4R barr agon; U2OS MC4R beta-arrestin recruitment, luminescence; scaled DMSO 0%, Melanotan II 100%; actives 31% (n = 2,400); AID 602192;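 active = mean activation across replicates above the hit cutoff set in the earlier primary screen, cut at about 8% in these data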
MOR DOR agonist – OPRM1-OPRD1 heterodimer agonism counter-screen; shares compounds with MC4R barr agon; U2OS PathHunter beta-arrestin, beta-gal luminescence; percent of deltorphin B response, DMSO zero; activation, % at 9.2 µM; actives 5.8% (n = 2,400); AID 602194;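 active = mean activation across replicates exceeds the hit threshold derived in the earlier primary screen, cut at about 18% in these data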;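 note: 100% = deltorphin B at 0.9 µM final and 0% = DMSO alone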
Starred values were filed as active, the others as inactive; . = no result.

SMILES	MC4R antag cAMP	HDAC3 inh	MC4R barr conf	MC4R barr agon	UUG fidelity	NALP1 inh	ALR inh	MOR DOR agonist
CC(C)(O)C#Cc1ccc([C@@H]2[C@H]3CN(C(=O)c4ccc(F)cc4)CCCCN3[C@H]2CO)cc1	.	.	.	.	41	.	.	.
Cc1cc(C(=O)OCC(=O)NC(C)c2ccccc2)c(C)o1 (stereo not drawn)	3	-1	.	-2	.	6	-2	.
CC(NC(=O)COC(=O)c1cc2ccccc2cc1O)c1ccccc1 (stereo not drawn)	7	.	12*	18*	-10	.	.	7
COc1ccccc1CCC(=O)OCC(=O)NCc1ccc(OC)c(OC)c1	17	-8	.	1	-2	.	-2	.
COc1cc(OC)cc(C(=O)OCC(=O)NC(c2ccccc2)c2ccccc2)c1	11	-3	2	13*	1	.	5	7
COc1ccc(CNC(=O)COC(=O)c2cc3ccccc3cc2O)cc1OC	9	-4	3	14*	13	.	.	4
CO[C@@H]1CN(C)C(=O)c2ccc(NS(=O)(=O)c3ccccc3Cl)cc2OC[C@H](C)NC[C@H]1C	.	.	.	.	-5	.	.	.
CCOC(=O)c1ccc(Cl)c(NC(=O)c2ccc(-c3ccccc3)cc2)c1	-19	6	4	13*	-10	10	-3	16
O=C(Nc1c(Cl)cccc1Cl)c1ccc(-c2ccccc2)cc1	-1	-12	-1	21*	-10	10	-17	11
O=C(Nc1ccc(Cl)cc1Cl)c1ccc(-c2ccccc2)cc1	7	-4	.	2	.	27	-6	.
Cc1ccc(S(=O)(=O)Nc2ccc3c(c2)C(=O)N([C@H](C)CO)C[C@@H](C)[C@H](CN(C)Cc2ccc4c(c2)OCO4)O3)cc1	.	.	.	.	-6	.	.	.
COc1ccc(-c2cn[nH]c2-c2ccc(OCc3ccccc3F)cc2O)cc1OC	0	7	3	14*	-27	4	11	12
C[C@@H]1CN([C@H](C)CO)S(=O)(=O)c2ccc(-c3ccc(C(=O)N(C)C)cc3)cc2O[C@H]1CN(C)Cc1ccccc1C(=O)O	.	.	.	.	5	.	.	.
CCC(C)(C)NC(=O)C(c1ccncc1)N(Cc1cccs1)C(=O)Cn1nnc2ccccc21 (stereo not drawn)	14	-1	.	-1	-11	17	.	.
CCC(C)(C)NC(=O)C(c1ccc(C)cc1)N(Cc1ccco1)C(=O)Cn1nnc2ccccc21 (stereo not drawn)	-2	-5	3	9.9*	-12	-3	-2	5
CNC[C@@H]1Oc2ccc(NS(=O)(=O)c3cn(C)cn3)cc2C(=O)N([C@H](C)CO)C[C@H]1C	.	.	.	.	5	.	.	.
Cc1ccc(-c2nnn(CC(=O)N(CC(=O)NC3CCCC3)c3ccc(F)c(Cl)c3)n2)o1	6	0	1	10*	5	8	-2	5
Cc1ccc(-c2nnn(CC(=O)N(CC(=O)NC3CCCCC3)c3ccc(F)c(Cl)c3)n2)o1	0	-8	.	5	-11	-1	-7	.
CCCN(C)C[C@H]1OCCCC[C@H](C)Oc2ccc(NC(=O)Cc3ccccc3)cc2C(=O)N([C@H](C)CO)C[C@H]1C	.	.	.	.	15	.	.	.
O=C(NN=Cc1cc(Cl)ccc1[N+](=O)[O-])c1cccc2ccccc12	-1	.	4	11*	.	.	.	9
O=C(NN=Cc1ccccc1Cl)c1cccc2ccccc12	7	.	.	0	.	.	.	.
C[C@@H]1CN([C@@H](C)CO)C(=O)c2cc(NC(=O)c3ccncc3)ccc2O[C@@H]1CN(C)C(=O)Nc1ccc2c(c1)OCO2	.	.	.	.	0	.	.	.
O=C(CNC(=S)NC(=O)c1ccc(Cl)cc1)c1ccccc1	-1	-1	2	12*	.	15	3	3
O=C(CNC(=S)NC(=O)c1ccc(Br)o1)c1ccccc1	1	.	2	11*	.	31	.	6
O=C(CNC(=O)c1ccc(Br)o1)NNC(=O)c1ccccc1	10	.	.	0	-13	.	.	.

Ordered by count of non-hydrogen atoms (high to low): some entries from above.
SMILES	MC4R antag cAMP	HDAC3 inh	MC4R barr conf	MC4R barr agon	UUG fidelity	NALP1 inh	ALR inh	MOR DOR agonist
CCCN(C)C[C@H]1OCCCC[C@H](C)Oc2ccc(NC(=O)Cc3ccccc3)cc2C(=O)N([C@H](C)CO)C[C@H]1C	.	.	.	.	15	.	.	.
CCC(C)(C)NC(=O)C(c1ccncc1)N(Cc1cccs1)C(=O)Cn1nnc2ccccc21 (stereo not drawn)	14	-1	.	-1	-11	17	.	.
CCOC(=O)c1ccc(Cl)c(NC(=O)c2ccc(-c3ccccc3)cc2)c1	-19	6	4	13*	-10	10	-3	16

As entered above:
`O=C(NN=Cc1cc(Cl)ccc1[N+](=O)[O-])c1cccc2ccccc12` in MOR DOR agonist = 9
`CO[C@@H]1CN(C)C(=O)c2ccc(NS(=O)(=O)c3ccccc3Cl)cc2OC[C@H](C)NC[C@H]1C` in UUG fidelity = -5
`COc1ccccc1CCC(=O)OCC(=O)NCc1ccc(OC)c(OC)c1` in MC4R barr agon = 1
`O=C(Nc1c(Cl)cccc1Cl)c1ccc(-c2ccccc2)cc1` in ALR inh = -17
`Cc1cc(C(=O)OCC(=O)NC(C)c2ccccc2)c(C)o1` (stereo not drawn) in MC4R barr agon = -2

Additional entries.
SMILES	MC4R antag cAMP	HDAC3 inh	MC4R barr conf	MC4R barr agon	UUG fidelity	NALP1 inh	ALR inh	MOR DOR agonist
C[C@@H]1CN([C@H](C)CO)C(=O)c2cc(NC(=O)c3ccncc3)ccc2O[C@H]1CN(C)C(=O)NC1CCCCC1	.	.	.	.	3	.	.	.
C(=N\NC1=Nc2cccc3cccc1c23)/c1ccccc1	-8	-1	1	14*	.	36	-1	4
Clc1ccc(/C=N/NC2=Nc3cccc4cccc2c34)cc1	-6	.	22*	16*	.	31	.	8
C(=N\NC1=Nc2cccc3cccc1c23)/c1cccnc1	2	10	.	-2	.	15	-20	.
O=C(O)/C=C\C(=O)Nc1ccc(Oc2ccccc2)cc1	3	1	.	-1	-17	6	33	.
O=C(O)/C=C/C(=O)Nc1ccc(C2(c3ccc(NC(=O)/C=C/C(=O)O)cc3)c3ccccc3-c3ccccc32)cc1	-1	7	1	53*	-9	2	98*	1
COc1ccc(Nc2nc(NCc3cccs3)nc3ccsc23)cc1OC	-3	.	.	-1	-16	.	.	.
CCOC(=O)Cc1ccc(Nc2nc(NCc3cccs3)nc3ccsc23)cc1	-3	.	-4	15*	-7	.	.	5
O=[N+]([O-])c1ccc(-c2ccc(/C=N/c3c(-c4ccco4)nc4ccccn34)o2)cc1	4	-4	9.2*	13*	.	14	.	9
N#C/C(=C\c1cn(Cc2cccc(F)c2)c2ccccc12)C(=O)NCc1ccco1	-1	4	6	31*	.	7	-16	2
N#C/C(=C\c1cn(Cc2ccccc2)c2ccccc12)C(=O)NCc1ccco1	7	5	1	17*	.	23	-6	3
CO[C@H]1CN(C)C(=O)c2cc(NC(=O)Nc3ccccc3F)ccc2OC[C@@H](C)N(Cc2ccccc2C(=O)O)C[C@H]1C	.	.	.	.	-5	.	.	.
C[C@@H]1CN([C@@H](C)CO)C(=O)c2cc(-c3cccc(F)c3)cnc2O[C@@H]1CN(C)C(=O)C1CCCCC1	.	.	.	.	-1	.	.	.
COc1ccc2c(Cl)c(C(=O)N/N=C/c3ccc4c(c3)OCO4)sc2c1	-4	4	7	12*	-20	4	-3	4
COc1ccc(S(=O)(=O)Nc2ccc3c(c2)CC(=O)N([C@@H](C)CO)C[C@@H](C)[C@H](CN(C)S(C)(=O)=O)O3)cc1	.	.	.	.	-4	.	.	.
C[C@H]1CCCCO[C@@H](CN(C)C(=O)Nc2ccc(C(F)(F)F)cc2)[C@@H](C)CN([C@@H](C)CO)C(=O)c2cc(NC(=O)Nc3ccc4c(c3)OCO4)ccc2O1	.	.	.	.	-16	.	.	.
NC(CCc1ccccc1)c1csc(NC(=O)Nc2cccc(Cl)c2)n1 (stereo not drawn)	11	.	.	7	-1	.	.	.

Bioassay records from PubChem BioAssay.
